Laboratory results: BindingDB's records for doi:10.1124/jpet.104.066761 (National Institutes of Health, 2004)
pKi: −log10 of the molar value.

Biological target: Gastrin-releasing peptide receptor (Homo sapiens) (UniProt P30550)

## CSCC[C@H](NC(=O)[C@H](Cc1ccccc1)NC(=O)[C@H](Cc1cnc[nH]1)NC(=O)CNC(=O)[C@@H](NC(=O)[C@H](C)NC(=O)[C@H](Cc1c[nH]c2ccccc12)NC(=O)[C@H](CC(C)C)NC(=O)[C@H](CC(N)=O)NC(=O)CN)[C@@H](C)O)C(N)=O [NMB]
  pKi: 7.01
